Compound activity (PubChem)
Shown are actives, neighbours in structure and some others; about 2.1% of the full set was active somewhere.
miR-122 sensor = miR-122 Renilla sensor signal increase in Huh7, primary screen, miR-122 inhibitor project, cell-based, single point, plate reader. actives 0.3% (n = 340,000). Huh7 miR-122 Renilla luciferase sensor, 48 h; neutral wells = 0, positive control = 100. activation (reporter increase), % at 12.5 µM;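 active = mean replicate activation score at least 90 and every replicate individually at or above 90; inconclusive = only one of the two criteria met; inactive = neither criterion met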;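 also: higher luciferase means less miR-122 activity so hits act as miR-122 inhibitors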
TRPM1 prom inh = inhibitors of MITF-dependent TRPM1 promoter reporter, primary screen, cell-based, SK-MEL-5, single point, luciferase; AID 488899, 2010; SK-MEL-5 TRPM1 promoter luciferase, 24 h; inhibition, % at 12.5 µM; actives 0.83% (n = 330,000);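 active = mean inhibition across replicates of 60% or more, whatever share of single replicates reaches that level; inconclusive = some that reach 60%, reason not given; inactive = mean inhibition across replicates below 60%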
PGC1a acetyl inh = inhibitors of PGC1a acetylation signal, primary screen, cell-based, U2OS, AlphaScreen, inhibitor mode; AlphaScreen anti-acetyl-lysine; with virally co-expressed GCN5 acetyltransferase; inhibition, % at 15.6 µM; actives 0.17% (n = 350,000);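 active = every replicate shows inhibition of at least 40%; inconclusive = mean inhibition at least 40% but some replicate below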;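 also: 0% = neutral control wells and 100% = positive control wells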
MITF TRPM1 HTS = activators of MITF-driven TRPM1 promoter reporter, primary screen, cell-based, SK-MEL-5, luciferase, single point | SK-MEL-5 TRPM1-promoter luciferase, 24 h; % of positive control, neutral wells = 0 | activation, % at 12.5 µM | actives 0.75% (n = 300,000);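 active = mean activation of at least 80% with every replicate also reaching 80%; inconclusive = mean reaches 80% but some replicate falls short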;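 also: 0% = neutral control wells and 100% = parthenolide positive control wells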
Wnt act = Wnt/beta-catenin pathway activators, primary screen, cell-based, plate reader, single point | Wnt/beta-catenin reporter cell assay, activator | activation, % at 9.35 µM | actives 1.2% (n = 300,000); in the data active = activation above about 30%, passing the limit was not always enough; inconclusive = no clear call, values can overlap the other calls;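 also: 0% = neutral control wells and 100% = positive control wells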
Yeast UUG start = alters start codon recognition fidelity in yeast | S. cerevisiae UUG-firefly luciferase reporter, luminescence/redox ratio | activity score, % at 18.7 µM | hit rate 0.13% among 350,000 | AID 602363;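 active means replicate mean at a twofold rise or more, about +100% in these data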;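 further: firefly luciferase made from a UUG start codon reports start codon fidelity; reporter light over untreated wells divided by growth signal over untreated wells; some hits fall short of that in this replicate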
An asterisk follows results filed as active; ? = inconclusive; nt = not tested or not shown; [ ] = remark or other dose.

1	O=C(/C=C/c1cccc([N+](=O)[O-])c1)n1cnc2ccccc21
2	Cc1cc(O)c(C(=O)/C=C/c2cccc([N+](=O)[O-])c2)c(=O)o1
3	O=C(/C=C/c1cccc([N+](=O)[O-])c1)N1CCN(c2ccccn2)CC1
4	O=C(/C=C/c1cccc([N+](=O)[O-])c1)c1cccs1
5	C[C@H](CO)N1C[C@H](C)[C@@H](CN(C)S(=O)(=O)c2ccccc2)Oc2c(NC(=O)C3CCOCC3)cccc2C1=O
Compound,1,2,3,4,5
miR-122 sensor,-9,-5,nt,-9,2[16.7 µM]
TRPM1 prom inh,67*,13,14,80*,nt
PGC1a acetyl inh,-10,4,nt,27,14
MITF TRPM1 HTS,-65,nt,-13,-78,nt
Wnt act,-6,-4,-3,-5,nt
Yeast UUG start,nt,-11,2,-18,1

As entered above.
`Cc1cc(O)c(C(=O)/C=C/c2cccc([N+](=O)[O-])c2)c(=O)o1` @ PGC1a acetyl inh = 4
`O=C(/C=C/c1cccc([N+](=O)[O-])c1)N1CCN(c2ccccn2)CC1` @ MITF TRPM1 HTS = -13
`C[C@H](CO)N1C[C@H](C)[C@@H](CN(C)S(=O)(=O)c2ccccc2)Oc2c(NC(=O)C3CCOCC3)cccc2C1=O` @ Yeast UUG start = 1
`O=C(/C=C/c1cccc([N+](=O)[O-])c1)c1cccs1` @ PGC1a acetyl inh = 27

The list goes on.
6	Cc1ccc(S(=O)(=O)Nc2ccc3c(c2)C(=O)N([C@H](C)CO)C[C@H](C)[C@@H](CN(C)CC2CCCCC2)O3)cc1
7	COc1cc(/C=C2\CCC/C(=C\c3ccc(O)c(OC)c3)C2=O)ccc1O
8	COc1cc(/C=C2\CC/C(=C\c3cc(OC)c(OC)c(OC)c3)C2=O)cc(OC)c1OC
9	COc1cc(/C=C2\CC/C(=C\c3cc(OC)c(O)c(OC)c3)C2=O)cc(OC)c1O
10	COc1cc(/C=C2/CCC/C(=C\c3cc(O)c(OC)c(Cl)c3)C2=O)cc(Cl)c1O
Compound,6,7,8,9,10
miR-122 sensor,-4[16.7 µM],nt,nt,nt,113*
TRPM1 prom inh,nt,13,21,68*,5
PGC1a acetyl inh,nt,28,nt,nt,-18
MITF TRPM1 HTS,nt,-11,-18,-64,-10
Wnt act,nt,2,nt,11,41*
Yeast UUG start,-2,-19,nt,nt,-17

Complete entries from above:
Profile of `COc1cc(/C=C2\CCC/C(=C\c3ccc(O)c(OC)c3)C2=O)ccc1O` = miR-122 sensor: nt; TRPM1 prom inh: 13; PGC1a acetyl inh: 28; MITF TRPM1 HTS: -11; Wnt act: 2; Yeast UUG start: -19
Profile of `COc1cc(/C=C2/CCC/C(=C\c3cc(O)c(OC)c(Cl)c3)C2=O)cc(Cl)c1O` = miR-122 sensor: 113*; TRPM1 prom inh: 5; PGC1a acetyl inh: -18; MITF TRPM1 HTS: -10; Wnt act: 41*; Yeast UUG start: -17

Additional structures:
11	C[C@@H]1CN([C@H](C)CO)C(=O)c2cc(NC(=O)Cc3cn(C)c4ccccc34)ccc2O[C@@H]1CN(C)CC1CCCCC1
12	O=C(NC1CCCCC1)[C@@H]1[C@@H](CO)[C@@H]2Cn3c(cccc3=O)[C@H]1N2CC1CCCCC1
13	Cc1ccc(S(=O)(=O)N[C@H]2CC[C@H](CCn3cc(C(C)C)nn3)O[C@H]2CO)cc1
14	CN(Cc1cc2ccccc2[nH]c1=O)C(=O)COc1ccccc1
15	CCC(=O)N(Cc1cc2ccccc2[nH]c1=O)C(C)C
Compound,11,12,13,14,15
miR-122 sensor,-7[16.7 µM],nt,nt,nt,nt
TRPM1 prom inh,nt,nt,nt,0,1
PGC1a acetyl inh,-17,-1,-2,5,nt
MITF TRPM1 HTS,nt,nt,nt,-4,2
Wnt act,nt,nt,nt,50*,nt
Yeast UUG start,13,nt,-2,nt,10

16	CO[C@H](CN(C)S(=O)(=O)c1ccc(Cl)cc1)[C@@H](C)CN(C(=O)Nc1ccccc1F)[C@@H](C)CO
17	c1ccc(-c2ccc3c(n2)CCCN3Cc2ccccn2)cc1
18	CCOC(=O)c1sc(NC(=O)Cc2ccc(F)cc2)nc1C
19	CCOC(=O)c1sc(NC(=O)C2CCC2)cc1C
20	Cc1sc(NC(=O)Nc2ccccc2)c(C(N)=O)c1C
Compound,16,17,18,19,20
miR-122 sensor,nt,nt,nt,-12,-1
TRPM1 prom inh,nt,nt,3,-43,-35
PGC1a acetyl inh,5,nt,nt,2,3
MITF TRPM1 HTS,nt,nt,-3,44,40
Wnt act,nt,35*,0,37*,33*
Yeast UUG start,nt,nt,nt,nt,-2

21	CCOC(=O)c1sc(NC(C)=O)cc1C
22	CCOC(=O)c1sc(NC(=O)Nc2ccccc2)cc1C
23	COC(=O)c1c(NC(=O)Nc2ccc(Cl)cc2)sc(C)c1C
24	CCOC(=O)c1sc(NC(=O)Nc2ccc(F)cc2)nc1C
25	CCOC(=O)c1sc(NC(=O)Nc2ccccc2Cl)cc1C
Compound,21,22,23,24,25
miR-122 sensor,-5,nt,-2,nt,56
TRPM1 prom inh,-4,-106,4,-101,-34
PGC1a acetyl inh,-4,nt,-8,nt,nt
MITF TRPM1 HTS,1,105*,-4,103*,33
Wnt act,2,?,-1,-2,13
Yeast UUG start,13,nt,-30,nt,-56

26	O=C(C[C@@H]1C[C@H]2c3cc(NC(=O)C4CCOCC4)ccc3O[C@H]2[C@H](CO)O1)NCCc1ccccc1
27	Cn1cnc(S(=O)(=O)N2C[C@H](O)COC[C@H]3O[C@@H](CC(=O)NC4CCC4)CC[C@@H]32)c1
28	CC(NC(=O)CN(c1cccc(C(F)(F)F)c1)S(=O)(=O)c1ccc(Cl)c([N+](=O)[O-])c1)c1ccccc1 (stereo not given)
29	C[C@H]1CN([C@@H](C)CO)C(=O)c2cccc(NC(=O)Nc3ccccc3)c2O[C@H]1CN(C)C(=O)Nc1ccc(C(F)(F)F)cc1
30	N#C/C(=C\c1cccs1)C(=O)Nc1ccccn1
Compound,26,27,28,29,30
miR-122 sensor,-1[16.7 µM],1[16.7 µM],-42,-10[16.7 µM],nt
TRPM1 prom inh,nt,nt,79*,nt,-87
PGC1a acetyl inh,-7,-15,nt,-4,11
MITF TRPM1 HTS,nt,nt,-78,nt,89*
Wnt act,nt,nt,-5,nt,74*
Yeast UUG start,4,nt,-3,-5,nt

31	N#C/C(=C\c1ccccc1)C(=O)Nc1ccccn1
32	COc1ccc(C#Cc2ccc3c(c2)[C@]2(C(=O)N3)[C@H](c3ccc(O)cc3)N3[C@H](c4ccccc4)[C@H](c4ccccc4)OC(=O)[C@H]3[C@@H]2C(=O)N2CCc3cc(OC)c(OC)cc3C2)cc1
33	CO[C@H]1CN(C)C(=O)c2cc(NS(=O)(=O)c3ccc(C)cc3)ccc2OC[C@H](C)N(C)C[C@@H]1C
34	COc1ccc(-c2nnc(-c3ccc(N)cc3)o2)cc1
35	COc1ccc(-c2nnc(-c3cccnc3)o2)cc1
Compound,31,32,33,34,35
miR-122 sensor,-11,nt,0[16.7 µM],3,-3
TRPM1 prom inh,-14,nt,nt,-36,-46
PGC1a acetyl inh,4,4,-12,nt,3
MITF TRPM1 HTS,10,nt,nt,nt,nt
Wnt act,0,nt,nt,53*,36*
Yeast UUG start,-16,3,9,-13,-21

36	COc1ccc2nc(-c3ccc(N)cc3)[nH]c2c1
37	CO[C@@H]1CN(C)C(=O)c2ccc(NC(C)=O)cc2OC[C@@H](C)N(C(=O)c2ccccc2F)C[C@@H]1C
38	C[C@@H]1CCCCO[C@@H](CN(C)S(=O)(=O)c2ccc(Cl)cc2)[C@H](C)CN([C@H](C)CO)C(=O)c2cc(NC(=O)CCCN(C)C)ccc2O1
39	CN(C)/C=C/C(=O)/C=C/c1ccc(Cl)cc1Cl
40	C[C@@H]1CCCCO[C@@H](CN(C)S(=O)(=O)c2ccc(F)cc2)[C@H](C)CN([C@H](C)CO)C(=O)c2cc(NS(C)(=O)=O)ccc2O1
Compound,36,37,38,39,40
miR-122 sensor,-6,12[16.7 µM],3[16.7 µM],nt,-13[16.7 µM]
TRPM1 prom inh,32,nt,nt,-88,nt
PGC1a acetyl inh,-10,2,-1,nt,7
MITF TRPM1 HTS,-30,nt,nt,92*,nt
Wnt act,69*,nt,nt,?,nt
Yeast UUG start,-9,nt,0,nt,14

41	CCN1c2ccccc2NC2C1C(C(C)=O)C(=O)N2c1ccc(Cl)cc1 (stereo not given)
42	CC=Cc1ccc2n(c1=O)C[C@H]1[C@H](CO)[C@@H](C(=O)NCCC)[C@@H]2N1CC1CC1 (mixture of isomers)
43	COc1ccc(S(=O)(=O)Nc2ccc(C(F)(F)F)cc2)cc1OC
44	COc1ccc(-c2cn(CC[C@@H]3CC[C@@H](NC(=O)Cc4ccccn4)[C@@H](CO)O3)nn2)cc1
45	CC(C)OC(=O)CSc1nnc(C2CCCCC2)n1N
46	Nn1c(SCC(=O)N2CCCC2)nnc1C1CCCCC1
47	Cc1ccc(NC(=O)N2CCc3ccccc3C2)cc1
Compound,41,42,43,44,45,46,47
miR-122 sensor,nt,1[16.7 µM],128*,nt,-2,0,10
TRPM1 prom inh,65*,nt,7,nt,14,nt,-90
PGC1a acetyl inh,-8,nt,1,-7,12,14,-6
MITF TRPM1 HTS,-63,nt,nt,nt,nt,nt,?
Wnt act,-1,nt,-4,nt,42*,-2,nt
Yeast UUG start,-5,6,-3,0,-9,-10,-24
